Results as given in published antibiotic growth screens (doi:10.1038/s41589-023-01349-8).
This is one part of the list.

System: A. baumannii ATCC 17978
Experiment: relative growth (fraction of control); higher = less inhibition
Details: 50 µM

SMILES	relative growth
CC(N)C12CC3CC(CC(C3)C1)C2.Cl (stereo not given)	1.01
COc1cccc(S(=O)(=O)Nc2ccc3c(c2)[C@H]2C[C@H](CC(=O)NCc4ccccc4F)O[C@@H](CO)[C@H]2O3)c1	0.826
COc1ccc(C(=O)Nc2cccc(CN3C(=O)[C@]4(O[C@H](CC(=O)N(CCO)Cc5ccccc5)[C@@H]([Si](C)(C)c5ccc(OC)cc5)[C@@H]4C)c4ccccc43)c2)cc1	1.13
COc1ccc(OC)c(C(O)CNC(=O)CN)c1.Cl (stereo not given)	1
C[C@]12CCC(=O)C=C1CCC1C2[C@@H](O)C[C@@]2(C)C1CC[C@]2(O)C(=O)CO (stereo not given in full)	0.993
C=CCSc1n[nH]c(=O)[nH]c1=O	0.94
Cc1cn([C@H]2CC[C@@H](CO)O2)c(=O)[nH]c1=O	1.02
C[C@H]1CN([C@@H](C)CO)S(=O)(=O)c2ccc(C#Cc3ccncc3)cc2O[C@H]1CN(C)C(=O)c1ccncc1	0.939
CC(C)NC(=O)N[C@H]1CC[C@H](CCN)O[C@H]1CO	1.17
O=C(C[C@@H]1CC=CC[C@H](NC(=O)OCC2c3ccccc3-c3ccccc32)C(=O)OCCNC1=O)NCCO	1.07
C=CCC[C@H](Cc1ccc(F)cc1)C(=O)OC[C@@H]1CCCN1C(=O)[C@H](CC=C)CC(=O)N(CCO)Cc1ccccc1	0.985
C[C@H]1CN([C@@H](C)CO)S(=O)(=O)c2ccc(C#CCN(C)C)cc2O[C@H]1CN(C)C(=O)CN(C)C	0.989
C/C=C/c1ccc2c(c1)O[C@@H](CN(C)C(=O)c1ccc3c(c1)OCO3)[C@H](C)CN([C@H](C)CO)S2(=O)=O	1.07
COc1cc(/C=C/C(=O)OC[C@H]2O[C@@H](O[C@@H]3OC=C[C@H]4[C@H](O)[C@@H]5O[C@]5(CO)[C@@H]34)[C@H](O)[C@@H](O)[C@@H]2O)ccc1O	1.06
C[C@@H]1CN([C@@H](C)CO)S(=O)(=O)c2ccc(-c3ccc(C(=O)N(C)C)cc3)cc2O[C@@H]1CN(C)C(=O)C1CCC1	0.974
O=C(O)c1cc(/N=N/c2ccc(S(=O)(=O)Nc3ccccn3)cc2)ccc1O	1.18
C=CCOC(=O)[C@H]1[C@@H]2C(=O)O[C@@H](c3ccccc3)[C@@H](c3ccccc3)N2[C@@H](c2ccc(OCCOC(=O)[C@H]3C[C@H]4C(=O)N[C@@H](CC(C)C)C(=O)N4[C@H]3c3cccc(OCCO)c3)cc2)[C@]12C(=O)Nc1ccc(I)cc12	1.27
Cl.O=C1CC2(CCCC2)CC(=O)N1CCCCN1CCN(c2ncccn2)CC1	0.898
CCn1c2c(c3cc(C4CCCCC4)ccc31)CCC/C2=N\O	1.21
C[C@H]1CN([C@@H](C)CO)S(=O)(=O)c2ccc(-c3ccc(F)cc3)cc2O[C@@H]1CN(C)S(C)(=O)=O	0.877
